One compound from patent publication US9132136B2, “Pharmaceutical combination” (HOFFMANN-LA ROCHE INC., priority 2010, dated 2015) can be followed below.

This data set is described as follows: 14-day treatment in rats: body weight gain, fat mass (MR relaxometry), food intake. The note with it: 14 days, olanzapine 2 mg/kg p.o.

Turning to `Cc1cc2c(s1)Nc1ccccc1N=C2N1CCN(C)CC1` [olanzapine, reference compound], the fat mass content entry is recorded as “increase”.
